# Patent publication US10363323B2, “Hydrophobic modified peptides for liver specific diagnosis” (RUPRECHT-KARLS-UNIVERSITAT HEIDELBERG, priority 2011, dated 2019)
# Test system: liver of a WAG/Rji rat
# Conditions: in vivo
# Method: The rats were orthopically injected with 1×10^6 syngenic colon carcinoma cells (CC531 cells) 10 days prior to the measurements. At the day of measurement the rats received the peptide in a concentration of 400 nmol/kg body weight. During the experiments the rats were anaesthetised by isoflurane and kept at 37° C.
substance,measurement,value
"Fluodeoxyglucose(^18F) [^18F-FDG, reference compound]",enrichment of the counterstain in organs (PET image),enriched in organs consuming high amounts of glucose
